{"source": "patent US6057450A", "about": "“Derivatives of pyroglutaminic acid preparation process and applications” (Totiam, S.L., priority 1994, dated 2000)", "origin": "cited, not measured here", "tested_on": "patients with cancer", "settings": "cited from earlier work"}
{"substance": "IL-2: Interleukin-2 (IL-2)", "values": [{"measurement": "deaths related with the treatment", "setting": "high doses of IL-2 alone, with LAK cells or TIL, 435 patients, 679 occasions", "result": "nine"}, {"measurement": "patients with myocardial infarction", "setting": "high doses of IL-2 alone, with LAK cells or TIL, 435 patients", "result": "five"}, {"measurement": "anemia incidence", "setting": "high doses of IL-2 alone, with LAK cells or TIL", "result": 61, "unit": "%"}, {"measurement": "hypotension incidence", "setting": "high doses of IL-2 alone, with LAK cells or TIL, of therapeutical actions", "result": 60, "unit": "%"}, {"measurement": "somnolence, disorientation and coma", "setting": "high doses of IL-2 alone, with LAK cells or TIL, patients", "result": 38, "unit": "%"}, {"measurement": "toxicity and response index, 788 patients", "setting": "high doses of IL-2 associated to LAK cells, TIL, IFNs, TNF", "result": "high toxicity and the low response index"}, {"measurement": "effect on tumor metastases", "setting": "patients with favourable prognosis factors", "result": "can cause the regression of tumor metastases"}]}
